The source of these data is ChEMBL document CHEMBL5241109, “Roles and drug development of METTL3 (methyltransferase-like 3) in anti-tumor therapy” (Eur J Med Chem, 2022).

Amino acid sequences for entries named in this document (tags omitted).
UniProt Q86U44, whole entry: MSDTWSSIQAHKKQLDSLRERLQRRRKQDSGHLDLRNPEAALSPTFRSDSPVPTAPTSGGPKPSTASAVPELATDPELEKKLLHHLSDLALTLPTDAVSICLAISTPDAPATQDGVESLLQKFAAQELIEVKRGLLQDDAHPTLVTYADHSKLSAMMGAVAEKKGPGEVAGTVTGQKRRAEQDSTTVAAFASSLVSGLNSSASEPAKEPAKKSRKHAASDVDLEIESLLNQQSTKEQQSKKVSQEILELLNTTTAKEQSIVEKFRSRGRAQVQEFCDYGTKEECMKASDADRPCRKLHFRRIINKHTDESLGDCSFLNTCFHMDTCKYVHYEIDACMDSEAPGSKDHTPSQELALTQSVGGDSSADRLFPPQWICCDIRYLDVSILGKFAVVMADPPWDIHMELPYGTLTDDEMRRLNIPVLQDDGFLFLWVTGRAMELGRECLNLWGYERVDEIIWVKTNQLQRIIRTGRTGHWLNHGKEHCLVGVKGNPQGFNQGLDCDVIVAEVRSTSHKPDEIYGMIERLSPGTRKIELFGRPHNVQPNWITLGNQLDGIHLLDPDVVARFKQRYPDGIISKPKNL

The experiment concerns the target N6-adenosine-methyltransferase catalytic subunit (Homo sapiens, UniProt Q86U44). Put plainly: Inhibition of METTL3 (unknown origin) assessed as remaining activity at 500 uM relative to control.

Each structure is given as a SMILES string.

Regarding `Nc1ncnc2c1ncn2[C@@H]1O[C@H](C(=O)NCCCCN2CCCC2)[C@@H](O)[C@H]1O`, the Activity was -3%.
For `Nc1ncnc2c1ncn2[C@@H]1O[C@H](CO)[C@@H](O)[C@H]1O` [ADENOSINE], the Activity was determined as 63%.
